{"sequences": {"note": "Chains of the proteins cited; added tags and fusions are not shown. Lines headed by an entry give the natural chain unless they say otherwise; changes in a name come on top.", "UniProt P11229": "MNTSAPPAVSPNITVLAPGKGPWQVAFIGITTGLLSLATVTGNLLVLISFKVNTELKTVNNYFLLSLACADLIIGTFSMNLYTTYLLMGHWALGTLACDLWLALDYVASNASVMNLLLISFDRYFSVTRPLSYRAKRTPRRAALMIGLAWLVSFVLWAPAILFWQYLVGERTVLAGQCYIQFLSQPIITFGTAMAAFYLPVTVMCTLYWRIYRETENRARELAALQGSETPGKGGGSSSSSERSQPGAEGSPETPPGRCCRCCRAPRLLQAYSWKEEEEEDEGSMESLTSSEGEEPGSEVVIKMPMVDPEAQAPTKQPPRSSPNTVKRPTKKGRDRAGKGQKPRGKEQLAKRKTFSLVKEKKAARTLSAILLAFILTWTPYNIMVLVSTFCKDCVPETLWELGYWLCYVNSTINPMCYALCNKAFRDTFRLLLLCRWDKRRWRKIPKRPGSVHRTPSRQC"}, "source": "PubChem BioAssay AID588814", "about": "(The Scripps Research Institute Molecular Screening Center, 2011)", "note": "The entries are a selection whose mix differs from that of the whole data set. Activity calls are given as the source filed them.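 The calls were made as follows: active = activation above the run's mean compound activation plus 3 SD (cut at about 16% in these data); inactive = the rest.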"}
{"biological_target": "Muscarinic acetylcholine receptor M1 (Homo sapiens) (UniProt P11229)", "test": "CHRM1 activation via calcium signal – Fluo-8 calcium fluorescence, CHO-K1 cells, HTS, primary screen (AID 588814);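 also: peak over basal fluorescence ratio within a 140 s kinetic read after compound addition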", "conditions": "CHO-K1 hM1, Fluo-8 calcium fluorescence, agonist mode; at 3 µM; stronger effect = higher value; 0% DMSO, 100% acetylcholine EC100"}
{"smiles": "O=C(Nc1ccncc1[N+](=O)[O-])c1ccc([N+](=O)[O-])cc1[N+](=O)[O-]", "activation": "inactive: -1.52%"}
{"smiles": "O=C(COc1ccccc1)OC1CN2CCC1CC2", "note": "(stereo not drawn)", "activation": "inactive: -7.01%"}
{"smiles": "O=C(O)C(=O)c1ccc(N(CCCl)CCCl)cc1", "activation": "inactive: -5.85%"}
{"smiles": "COC(=O)C1(C)COP(=O)(N2CCCC2)OC1", "note": "(stereo not drawn)", "activation": "inactive: 1.98%"}
{"smiles": "COP1(=S)c2c(C)nn(CCC#N)c2N=C(c2ccc(F)cc2)N1C", "note": "(stereo not drawn)", "activation": "inactive: -5.88%"}
{"smiles": "COc1ccc(N/C(=N/P(=O)(N2CCOCC2)N2CCOCC2)N2CCOCC2)cc1", "activation": "inactive: -5.16%"}
{"smiles": "O=[N+]([O-])c1cc(Oc2ccc([N+](=O)[O-])cc2C(F)(F)F)cc([N+](=O)[O-])c1", "activation": "inactive: -5.39%"}
{"smiles": "COc1cc(I)ccc1[As](=O)(O)O", "activation": "inactive: -2.73%"}
{"smiles": "COc1ccc2nc(NP(=O)(c3ccccc3)c3ccccc3)sc2c1", "activation": "inactive: -6.29%"}
{"smiles": "O=P1(N(CCCl)CCCl)OCCCN1CCCl", "note": "(stereo not drawn)", "activation": "inactive: -1.48%"}
{"smiles": "O=P1(N(CCCl)CCCl)Nc2ccccc2N1", "activation": "inactive: -1.53%"}
{"smiles": "Cc1cc(=O)[nH]c(N[N+](=O)[O-])n1", "activation": "inactive: 1.45%"}
{"smiles": "O=C(OC1CN2CCC1CC2)C12CC3CC(CC(C3)C1)C2", "note": "(stereo not drawn)", "activation": "inactive: -6.67%"}
{"smiles": "Cc1c2c(nc3ccccc13)SC(C(Cl)Cl)C2", "note": "(stereo not drawn)", "activation": "inactive: -10.8%"}
{"smiles": "O=[N+]([O-])c1cc([N+](=O)[O-])c(-c2ccn[nH]2)s1", "activation": "inactive: -3.82%"}
{"smiles": "CC(C)NC(=O)NP(=O)(Oc1ccccc1)Oc1ccccc1", "activation": "inactive: -4.04%"}
{"smiles": "O=C(OC1CN2CCC1CC2)c1cccc2[nH]cnc12", "note": "(stereo not drawn)", "activation": "inactive: -4.21%"}
{"smiles": "CCN(CC)C(=S)SC(NC=O)C(Cl)(Cl)Cl", "note": "(stereo not drawn)", "activation": "inactive: -1.56%"}
{"smiles": "COC(=O)C1(C)COP(=O)(N2CCCCCC2)OC1", "note": "(stereo not drawn)", "activation": "inactive: -0.98%"}
{"smiles": "CC(C)c1ccc(OP(=O)(Nc2ccccn2)Oc2ccccc2F)cc1", "note": "(stereo not drawn)", "activation": "inactive: 0.73%"}
{"smiles": "ClCCSc1nnc(-c2cccnc2)o1", "activation": "inactive: -4.42%"}
{"smiles": "Cc1ccc2nc3c(c(C)c2c1)CC(C(Cl)Cl)S3", "note": "(stereo not drawn)", "activation": "inactive: -8.58%"}
{"smiles": "CC(Cc1ccc(O)cc1)NCC(O)c1cc(O)cc(O)c1", "note": "(stereo not drawn)", "activation": "inactive: -5.52%"}
{"smiles": "Cc1ccc(OP(=O)(Nc2ccc([N+](=O)[O-])cn2)Oc2ccc(C)cc2)cc1", "activation": "inactive: -3.95%"}
{"smiles": "O=[N+]([O-])c1ccc(-c2cc([N+](=O)[O-])c(O)c([N+](=O)[O-])c2)cc1", "activation": "inactive: -2.4%"}
{"smiles": "O=[As](O)(c1ccc(O)cc1)c1ccccc1O", "activation": "inactive: -1.56%"}
{"smiles": "C[As](=O)(O)c1cccc(C(=O)O)c1", "activation": "inactive: -3.45%"}
{"smiles": "CCN(N=Nc1nonc1N)c1nonc1N", "activation": "inactive: -1.3%"}
{"smiles": "Nc1cccc2ccc([As](=O)(O)O)cc12", "activation": "inactive: -3.21%"}
{"smiles": "CN(C(=O)Cc1ccc(Cl)c(Cl)c1)[C@H]1CCCC[C@@H]1N1CCCC1", "activation": "inactive: -6.04%"}
{"smiles": "Cc1ccc(NP(=O)(Oc2ccccc2F)Oc2ccccc2F)nc1", "activation": "inactive: -2.57%"}
{"smiles": "Cc1cc(SC(NC(=O)c2ccc(F)cc2)C(Cl)(Cl)Cl)ncn1", "note": "(stereo not drawn)", "activation": "inactive: -5.13%"}
{"smiles": "CCOP(=O)(Nc1ccccc1)OCC", "activation": "inactive: -3.51%"}
{"smiles": "CCCC1OP(N)(=O)OCC1CC", "note": "(stereo not drawn)", "activation": "inactive: -1.35%"}
{"smiles": "CC(=O)O[C@]1(C)C(=O)OC/C2=C/CN(C)CCC(OC(=O)[C@@](O)(C(C)O)C[C@H]1C)C2=O", "note": "(stereo partly drawn)", "activation": "inactive: -4.01%"}
{"smiles": "CC(=O)Nc1ccc([As](=O)(O)O)cc1", "activation": "inactive: -1.14%"}
{"smiles": "O=C(O)c1ccccc1[As](=O)(O)O", "activation": "inactive: 1.02%"}
{"smiles": "O=P(Nc1nc2ccc(Cl)cc2s1)(c1ccccc1)c1ccccc1", "activation": "inactive: -1.56%"}
{"smiles": "CN(C)P(=O)(N(C)C)n1c(Nc2ccccc2)nnc1-c1ccccc1", "activation": "inactive: -6.01%"}
{"smiles": "O=[N+]([O-])C1C(O)C(O)C([N+](=O)[O-])C(O)C1O", "note": "(stereo not drawn)", "activation": "inactive: -1.82%"}
{"smiles": "Nc1cc(N)c2nonc2c1[N+](=O)[O-]", "activation": "inactive: -2.19%"}
{"smiles": "CC(C)CC(=O)NC(Sc1ccc(Cl)cc1)C(Cl)(Cl)Cl", "note": "(stereo not drawn)", "activation": "inactive: -8.08%"}
{"smiles": "O=C(NC(Sc1ccncn1)C(Cl)(Cl)Cl)c1ccccc1", "note": "(stereo not drawn)", "activation": "inactive: -3.5%"}
{"smiles": "Oc1ccccc1CNc1ccccn1", "activation": "inactive: -6.88%"}
{"smiles": "Cc1ccc(OP(=O)(Nc2nccs2)Oc2ccc(C)cc2)cc1", "activation": "inactive: 1.55%"}
{"smiles": "COc1ccccc1OP(=O)(Nc1ccc(C)cn1)Oc1ccccc1OC", "activation": "inactive: -4.21%"}
{"smiles": "CC(C)[C@H]1C(=O)O[C@@H]2CCN3CC=C(COC(=O)[C@](C)(O)[C@]1(C)O)[C@H]23", "activation": "inactive: -8.18%"}
{"smiles": "CN1CCCC(OC(=O)C(c2ccccc2)c2ccccc2)C1", "note": "(stereo not drawn)", "activation": "inactive: -5.85%"}
{"smiles": "Clc1ccc(Cl)c(NC2=NCC(CBr)S2)c1", "note": "(stereo not drawn)", "activation": "inactive: -8.98%"}
{"smiles": "NC(=O)c1cc([N+](=O)[O-])cc([N+](=O)[O-])c1N", "activation": "inactive: -2.64%"}
{"smiles": "Cc1ccc(N/C(=N/P(=O)(N2CCOCC2)N2CCOCC2)N2CCOCC2)cc1", "activation": "inactive: -2.95%"}
{"smiles": "CN(C(=O)Cc1ccc(Cl)c(Cl)c1)[C@H]1CCCC[C@H]1N1CCCC1", "activation": "inactive: -6.26%"}
{"smiles": "CN(C)C(=O)OCCc1n(C)cc[n+]1C", "activation": "inactive: -12.4%"}
{"smiles": "CC(C)c1nc(Nc2ccccc2)n(P(=O)(N(C)C)N(C)C)n1", "activation": "inactive: -2.3%"}
{"smiles": "CC(C)=N/N=C(\\N)N[N+](=O)[O-]", "activation": "inactive: -6.8%"}
{"smiles": "CC1CCN(C(=O)Oc2c(Cl)cc(Cl)c3cccnc23)CC1", "activation": "inactive: -2.3%"}
{"smiles": "c1cc(-c2nn[nH]n2)ccc1-c1nn[nH]n1", "activation": "inactive: 2.88%"}
{"smiles": "C[N+]1=C2C=CC=CC=C2SC12C([N+](=O)[O-])=CC([N+](=O)[O-])=C[C-]2[N+](=O)[O-]", "note": "(stereo not drawn)", "activation": "inactive: 0.51%"}
{"smiles": "Nc1ccc([As](=O)(O)c2ccc(N)cc2)cc1", "activation": "inactive: 0.49%"}
{"smiles": "CCN(/C(=N/P(=O)(N1CCOCC1)N1CCOCC1)N1CCOCC1)c1ccc(OC)cc1", "activation": "inactive: -3.97%"}
{"smiles": "CC(=O)N1C2C3N(C(C)=O)C1C1N(C(C)=O)C(C(N1C(C)=O)N3C(C)=O)N2C(C)=O", "activation": "inactive: -1.94%"}
{"smiles": "O=[N+]([O-])c1cccc2n[nH]nc12", "activation": "inactive: -3.23%"}
{"smiles": "O=[N+]([O-])c1cc([N+](=O)[O-])c(CCNc2ccccc2)c([N+](=O)[O-])c1", "activation": "inactive: -4.2%"}
